Assays:
[1] = system: NB; assay: In vivo efficacy in mouse model of NB in combination with chemotherapeutic agents (FIG. 20); conditions: n=10, MRP1-transported agent
Text: FIG. 20 contains plots showing in vivo efficacy of compound 4H10 in increasing the therapeutic effect of two known MRP1 substrate drugs, but not for a nonsubstrate drug.
The test was a clinically relevant mouse model of NB that closely reflects the human disease (n=10, unless otherwise noted).

By UniProt entry, the sequences of proteins in these tests, tags left out. Where a name states a change or a piece, a line headed by the entry shows the natural chain unless it says otherwise.
UniProt P33527: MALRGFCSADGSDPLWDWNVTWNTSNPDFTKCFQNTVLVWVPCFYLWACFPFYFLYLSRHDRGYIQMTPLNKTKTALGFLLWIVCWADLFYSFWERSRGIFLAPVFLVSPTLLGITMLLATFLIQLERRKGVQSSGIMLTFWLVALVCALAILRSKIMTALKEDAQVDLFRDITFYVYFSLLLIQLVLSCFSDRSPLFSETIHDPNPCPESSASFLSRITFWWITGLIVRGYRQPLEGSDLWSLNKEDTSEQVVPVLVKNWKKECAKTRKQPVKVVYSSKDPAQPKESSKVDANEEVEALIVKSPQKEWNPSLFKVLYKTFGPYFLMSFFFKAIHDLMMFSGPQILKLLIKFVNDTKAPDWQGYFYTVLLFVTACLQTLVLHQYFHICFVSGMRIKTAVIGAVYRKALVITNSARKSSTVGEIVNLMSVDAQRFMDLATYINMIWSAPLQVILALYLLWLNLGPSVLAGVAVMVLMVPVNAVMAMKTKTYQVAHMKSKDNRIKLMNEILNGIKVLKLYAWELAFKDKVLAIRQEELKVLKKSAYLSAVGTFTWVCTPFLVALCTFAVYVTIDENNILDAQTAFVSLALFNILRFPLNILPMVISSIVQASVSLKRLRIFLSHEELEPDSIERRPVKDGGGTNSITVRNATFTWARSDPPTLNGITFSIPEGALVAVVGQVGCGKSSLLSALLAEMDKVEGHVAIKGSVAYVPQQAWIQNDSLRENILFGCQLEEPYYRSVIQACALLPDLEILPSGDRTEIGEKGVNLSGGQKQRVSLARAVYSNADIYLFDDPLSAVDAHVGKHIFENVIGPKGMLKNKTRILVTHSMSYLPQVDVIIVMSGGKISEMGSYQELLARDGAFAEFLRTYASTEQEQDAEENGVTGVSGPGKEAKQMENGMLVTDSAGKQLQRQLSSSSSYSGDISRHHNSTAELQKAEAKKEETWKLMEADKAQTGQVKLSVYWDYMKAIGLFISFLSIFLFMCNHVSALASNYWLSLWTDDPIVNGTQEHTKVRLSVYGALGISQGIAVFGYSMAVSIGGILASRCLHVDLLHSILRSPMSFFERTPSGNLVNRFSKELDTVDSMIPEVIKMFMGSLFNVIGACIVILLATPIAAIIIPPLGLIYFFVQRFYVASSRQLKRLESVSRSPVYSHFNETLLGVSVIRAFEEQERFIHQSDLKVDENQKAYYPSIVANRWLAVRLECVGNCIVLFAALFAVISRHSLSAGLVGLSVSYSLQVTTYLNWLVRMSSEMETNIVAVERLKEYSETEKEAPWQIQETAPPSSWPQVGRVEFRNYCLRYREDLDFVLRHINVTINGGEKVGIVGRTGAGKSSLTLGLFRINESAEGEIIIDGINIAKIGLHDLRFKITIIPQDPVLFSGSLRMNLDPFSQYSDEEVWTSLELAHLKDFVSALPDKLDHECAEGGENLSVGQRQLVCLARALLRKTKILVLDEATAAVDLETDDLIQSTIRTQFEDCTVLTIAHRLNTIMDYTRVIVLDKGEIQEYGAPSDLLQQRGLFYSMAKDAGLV

[2] = biological target: T1, MRP1 (Homo sapiens, UniProt P33527); assay: Dose dependence of drug sensitization effect, 4H10 vs MK571 (FIG. 14); assay type: cell-based; conditions: by effective concentration
T1 construct: MCF7/VP breast cancer cells (24), which have amplified and overexpressed MRP1, but negligible Pgp expression; endogenous in cells; host or cells: MCF7/VP (MCF7/VP clone 14) breast cancer cells
Text: FIG. 14 contains plots of relative cell viability (%) vs. inhibitor concentration (μM) comparing a present inhibitor compound 4H10 to a prior MRP1 inhibitor MK571;
FIG. 14 summarizes a determination of dose dependence of drug, sensitization effect of compound 4H10 compared to the conventional MRP1 inhibitor MK571.

SMILES: O=C(NCCCN1CCOCC1)c1cnn2c(-c3ccccc3)cc(-c3ccccc3)nc12 [Compound 4H10]
- effect on therapeutic effects of VP-16 [1]: significantly increases
- effect on therapeutic effects of vincristine [1]: significantly increases
- potency relative to MK571 [2]: about 100 times
